Results taken from PubChem BioAssay AID504651 (National Center for Advancing Translational Sciences (NCATS), 2011).
This is a selection; strong and weak results do not stand in their true shares. Some salts and complexes are drawn in separate pieces, as the source files them; their charges need not balance. The source made the active and inactive calls. Cut-off read from the data, not from the text of the source: active = potentiation above about 30%; inactive = the rest.
Note: 0% is about no effect.

Amino acid sequences for entries named in this document (tags omitted).
UniProt P21728, whole entry: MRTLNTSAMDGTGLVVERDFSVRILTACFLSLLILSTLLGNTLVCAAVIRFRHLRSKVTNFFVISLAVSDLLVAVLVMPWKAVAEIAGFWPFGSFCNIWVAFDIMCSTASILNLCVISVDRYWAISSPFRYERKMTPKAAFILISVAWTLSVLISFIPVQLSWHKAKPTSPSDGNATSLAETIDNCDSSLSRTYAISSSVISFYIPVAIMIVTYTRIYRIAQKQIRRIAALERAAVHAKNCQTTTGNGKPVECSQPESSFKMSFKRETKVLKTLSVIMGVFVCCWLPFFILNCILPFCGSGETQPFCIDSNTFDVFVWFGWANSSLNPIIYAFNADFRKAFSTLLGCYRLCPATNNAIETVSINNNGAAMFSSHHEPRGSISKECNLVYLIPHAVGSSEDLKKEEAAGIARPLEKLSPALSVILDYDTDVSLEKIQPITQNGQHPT

Each molecule was assayed against D(1A) dopamine receptor (Homo sapiens) (UniProt P21728) (assay: Potentiators of Human D1 Dopamine Receptor: qHTS). Details: HEK293 TREx D1 cells, calcium flux, dopamine EC20 potentiation; at 10 µM; hits give high values.
Excerpt: Dopamine receptors (DARs) are involved in the etiology and/or therapy of a number of neuropsychiatric and endocrine disorders. For instance, all receptor-based antiparkinsonian drugs work via stimulating the D1 DAR subtype whereas all FDA-approved antipsychotic agents are antagonists of this receptor. […] There are three different types of allosteric modulators that we are seeking, two of which will stimulate or augment receptor signaling, allosteric agonists and potentiators, while the third, allosteric antagonists, will attenuate receptor signaling. The present primary screening assay measures compound potentiation of an EC20 dopamine response by tracking calcium flux in a […], inducible Hek293 Trex D1 cell line.
NIH Chemical Genomics Center [NCGC]
NIH Molecular Libraries Probe Centers Network [MLPCN]
Assay Submitter (PI): David Sibley
Freshly passaged cells are plated in 1536 well black, clear bottom plates at a density of 4000 cells/well in 3 ul of complete media containing 1x tetracycline inducer. After an overnight incubation at 30 C in 5% CO2, cells are loaded with 2 ul of the no wash Calcium Assay Kit (ABD Bioquest) and incubated at room temperature for 30 to 90 minutes. A 10 cycle (1 second/cycle) baseline measurement is taken and then the FDSS online 1536 pintool delivers 23 nl of compound library (as well as dopamine controls) to the plate. The plate is measured for kinetically at 1 cycle/sec for 180 seconds and is considered to be the agonist portion of the assay (eg, compounds which activate a positive calcium response during this portion are flagged as potential agonists). Following the 180 second read, 1 ul of an EC20 of dopamine is delivered by an onboard pipette head. Measurements are taken kinetically for an additional 180 seconds.
For `CCOC(=O)N1CCC(Nc2cccc(C)c2)CC1`, the potentiation was inactive: -2.75%. In the case of `COc1cc(C(=O)NCC2(N(C)C)CCCCC2)ccc1OC(F)F`, the potentiation is reported as inactive: -0.713%. With `Cc1ccc(OCC(C)C)c(CN(CCCl)CCCl)c1` the potentiation was inactive: -1.5%. `CCOc1ccc(C)cc1CN(CCCl)CCCl` was tested, and the potentiation was inactive: 2.05%. For `O=C(NCC1(N2CCOCC2)CCCCC1)c1ccc(Cl)cc1`, the potentiation was inactive: 0.2%. In the case of `CCCCOc1ccc(C(=O)NCC2(N3CCOCC3)CCCCC2)cc1`, the potentiation is reported as inactive: -8.05%. For `O=C(NCC1(N2CCCCC2)CCCCC1)c1ccc(F)cc1`, the potentiation was inactive: -9.7%. With `COc1ccc(NC2CCN(CCc3ccccc3)CC2)c(OC)c1` the potentiation was inactive: 3.45%. With `CCOC(=O)N1CCC(Nc2ccc(F)cc2)CC1` the potentiation was inactive: -0.6%. `COc1ccccc1C(=O)NCC1(N2CCOCC2)CCCCC1` was tested, and the potentiation was inactive: 0.1%. In the case of `O=C(NCC1(N2CCOCC2)CCCCC1)c1cc2ccccc2o1`, the potentiation is reported as inactive: -3.6%. In the case of `O=C(NCC1(N2CCCCC2)CCCCC1)c1ccc(Cl)nc1`, the potentiation is reported as inactive: -1.55%. `Cc1cc(C)cc(N(C(=O)c2ccccc2)C2CCN(C(=O)OC(C)(C)C)CC2)c1` was tested, and the potentiation was inactive: 1.27%. `CCOC(=O)N1CCC(Nc2ccc(OC)cc2)CC1` was tested, and the potentiation was inactive: -4.65%. For `N#CC1(Nc2ccccc2)CCN(Cc2ccccc2)CC1`, the potentiation was inactive: 4.25%. `O=C(OC1CN2CCC1CC2)C1c2ccccc2Oc2ccccc21` (stereo not drawn) was tested, and the potentiation was inactive: 0.105%. `COc1ccc(Cl)cc1C(=O)NCC1(N2CCOCC2)CCCCC1` was tested, and the potentiation was inactive: 2.32%. In the case of `O=C(NCC1(N2CCCCC2)CCCCC1)c1ccc(=O)[nH]c1`, the potentiation is reported as inactive: -0.65%. In the case of `O=C(NCC1(N2CCCCC2)CCCCC1)c1cccs1`, the potentiation is reported as inactive: -3.5%. For `COc1ccc(C(=O)NCC2(N3CCCCC3)CCCCC2)cc1`, the potentiation was inactive: 0.95%. With `COc1ccc(C(=O)NCC2(N3CCCCC3)CCCCC2)c(OC)c1OC` the potentiation was inactive: -4%. For `CC(C)(C)OC(=O)N1CCC(N(C(=O)c2ccccc2)c2ccc(F)cc2)CC1`, the potentiation was inactive: -3.1%. In the case of `CSc1ccccc1C(=O)NCC1(N2CCCCC2)CCCCC1`, the potentiation is reported as inactive: 0.25%. `COc1ccc2c(c1O)-c1c(O)c(OC)cc3c1[C@H](C2)[N+](C)(C)CC3.O=[N+]([O-])c1cc([N+](=O)[O-])c([O-])c([N+](=O)[O-])c1[O-]` was tested, and the potentiation was inactive: 3.25%. In the case of `O=C(OC1CN2CCC1CC2)c1ccc([N+](=O)[O-])cc1` (stereo not drawn), the potentiation is reported as inactive: -0.35%. For `CCCCOc1ccccc1C(=O)NCC1(N2CCOCC2)CCCCC1`, the potentiation was inactive: 1.95%. In the case of `O=C(NCC1(N2CCOCC2)CCCCC1)c1ccccc1Br`, the potentiation is reported as inactive: 0.7%. With `CCCOc1ccc(C(=O)NCC2(N(C)C)CCCCC2)cc1OC` the potentiation was inactive: 1.54%. For `COc1ccc(CN(CCCl)CCCl)cc1Cl`, the potentiation was inactive: -2.25%. With `O=[N+]([O-])c1cc([N+](=O)[O-])c(OC2CCCCC2O)c([N+](=O)[O-])c1` (stereo not drawn) the potentiation was inactive: -7.4%. `CN(C)c1cccc(C(=O)NCC2(N3CCCCC3)CCCCC2)c1` was tested, and the potentiation was inactive: -1.65%. `CC(C)c1ccc(NC2CCN(C(=O)OC(C)(C)C)CC2)cc1` was tested, and the potentiation was inactive: -1.55%. For `COc1cc(OC)c(C(=O)NCC2(N(C)C)CCCCC2)cc1OC`, the potentiation was inactive: -3.95%. `CCCOc1cccc(C(=O)NCC2(N3CCOCC3)CCCCC2)c1` was tested, and the potentiation was inactive: 0.7%. With `O=C(NCC1(N2CCCCC2)CCCCC1)c1cccc(C(F)(F)F)c1` the potentiation was inactive: -3.15%. `O=[N+]([O-])c1cc([N+](=O)[O-])c(NCC2CCS(=O)(=O)C2)c([N+](=O)[O-])c1` (stereo not drawn) was tested, and the potentiation was inactive: 2%. With `CN1CCN(CCOC(=O)C(O)(c2ccccc2)c2ccccc2)CC1` the potentiation was inactive: -3.55%. In the case of `COc1ccc(NC2CCN(C(=O)OC(C)(C)C)CC2)cc1`, the potentiation is reported as inactive: -4.25%. `CC(C)c1ccc(C(=O)NCC2(N3CCOCC3)CCCCC2)cc1` was tested, and the potentiation was inactive: -3.2%. With `COc1cc(C(=O)NCC2(N3CCCCC3)CCCCC2)ccc1OC(F)F` the potentiation was inactive: -3.85%. In the case of `O=C(NCC1(N2CCOCC2)CCCCC1)c1cc(=O)[nH]c2ccccc12`, the potentiation is reported as inactive: 3.81%. For `O=C(NCC1(N2CCCCC2)CCCCC1)c1ccc(OC(F)F)cc1`, the potentiation was inactive: -6.5%. `CSc1ccc(C(=O)NCC2(N3CCOCC3)CCCCC2)cc1` was tested, and the potentiation was inactive: 0.55%. For `CCOc1ccc(C(=O)NCC2(N3CCOCC3)CCCCC2)cc1`, the potentiation was inactive: 0.95%. For `O=C(NCC1(N2CCCCC2)CCCCC1)c1cccc([N+](=O)[O-])c1`, the potentiation was inactive: -1.55%. `CCN1CCC(Nc2ccc(Cl)cc2)CC1` was tested, and the potentiation was inactive: -1.5%. `N#CC1(Nc2ccccc2)CCN(CCc2ccccc2)CC1` was tested, and the potentiation was inactive: -3.05%. In the case of `c1ccc(CN2CCC(Nc3ccccc3)CC2)cc1`, the potentiation is reported as inactive: -7.65%. With `CCCN1CCC(Nc2cc(OC)cc(OC)c2)CC1` the potentiation was inactive: -1.3%. With `O=C(NCC1(N2CCOCC2)CCCCC1)c1ccccc1` the potentiation was inactive: 0.3%. With `CN(C)C1(CNC(=O)c2cccc(C#N)c2)CCCCC1` the potentiation was inactive: 1.7%. `O=C(NCC1(N2CCOCC2)CCCCC1)c1ccc([N+](=O)[O-])cc1` was tested, and the potentiation was inactive: -0.75%. `CC(C)(C)OC(=O)N1CCC(N(C(=O)c2ccccc2)c2ccc(Cl)cc2)CC1` was tested, and the potentiation was inactive: -1.45%. With `N#Cc1ccc(C(=O)NCC2(N3CCCCC3)CCCCC2)cc1` the potentiation was inactive: -7.2%. For `O=C(NCC1(N2CCOCC2)CCCCC1)c1ccccc1[N+](=O)[O-]`, the potentiation was inactive: 2.55%. `CCOC(=O)C(CC)C1=NC(C)(C)Cc2ccccc21.O=[N+]([O-])c1cc([N+](=O)[O-])c(O)c([N+](=O)[O-])c1` (stereo not drawn) was tested, and the potentiation was inactive: -3.7%. For `N/C(=N\O)c1c(N)no[n+]1[O-]`, the potentiation was inactive: -8.4%. `CCOC(=O)N1CCC(Nc2ccc(C)cc2)CC1` was tested, and the potentiation was inactive: -5.9%. In the case of `CCc1cc(C(=O)NCC2(N3CCCCC3)CCCCC2)sc1C`, the potentiation is reported as inactive: -1.55%. With `O=C(OC1CN2CCC1CC2)C1c2ccccc2C=Cc2ccccc21` (stereo not drawn) the potentiation was inactive: -8.25%. `O=C(O)c1cccc(Nc2c([N+](=O)[O-])cc([N+](=O)[O-])cc2[N+](=O)[O-])c1` was tested, and the potentiation was inactive: -1.25%. With `O=C(NCC1(N2CCOCC2)CCCCC1)c1cc(Br)ccc1Cl` the potentiation was inactive: 1.95%. With `COc1ccc(C(=O)NCC2(N3CCOCC3)CCCCC2)cc1OC` the potentiation was inactive: -1.8%. In the case of `CCC(CO)(C(=O)OC1CN2CCC1CC2)c1ccccc1` (stereo not drawn), the potentiation is reported as inactive: 5.21%. `COc1cc(C(=O)NCC2(N3CCOCC3)CCCCC2)cc(OC)c1OC` was tested, and the potentiation was inactive: 0.35%. `COc1cc(OC)cc(C(=O)NCC2(N3CCOCC3)CCCCC2)c1` was tested, and the potentiation was inactive: 4.08%. In the case of `COc1cccc(C(=O)N(c2cc(C)cc(C)c2)C2CCN(C(=O)OC(C)(C)C)CC2)c1`, the potentiation is reported as inactive: 0.95%. `CCCOc1ccc(C)cc1CN(CCCl)CCCl` was tested, and the potentiation was inactive: 1.5%. For `CN1CCC(Nc2ccc(Cl)cc2)CC1`, the potentiation was inactive: -6%. With `CCOc1ncccc1C(=O)NCC1(N2CCOCC2)CCCCC1` the potentiation was inactive: 1.25%. `CN1CCC(Nc2ccc(F)c(Cl)c2)CC1` was tested, and the potentiation was inactive: -6.5%. With `CCCOc1ccc(C(=O)NCC2(N(C)C)CCCCC2)cc1` the potentiation was inactive: -0.65%. In the case of `CC(C)(C)OC(=O)N1CCC(Nc2ccccc2)CC1`, the potentiation is reported as inactive: -4%. With `O=C(O)C1(Nc2ccccc2)CCN(Cc2ccccc2)CC1` the potentiation was inactive: 5.55%. In the case of `CCN1CCC(Nc2cccc(F)c2)CC1`, the potentiation is reported as inactive: -2%. In the case of `O=C(NCC1(N2CCCCC2)CCCCC1)c1ccco1`, the potentiation is reported as inactive: -4.65%. For `CC(C)(C)c1ccc(C(=O)NCC2(N3CCOCC3)CCCCC2)cc1`, the potentiation was inactive: 1.3%. With `CN(C)c1ccc(C(=O)NCC2(N3CCCCC3)CCCCC2)cc1` the potentiation was inactive: -1.3%. With `Cc1ccccc1C(=O)NCC1(N(C)C)CCCCC1` the potentiation was inactive: 1.75%. In the case of `COc1cc(OC)cc(C(=O)NCC2(N3CCCCC3)CCCCC2)c1`, the potentiation is reported as inactive: 2.55%. With `CN(C)C1(CNC(=O)c2ccc(C(C)(C)C)cc2)CCCCC1` the potentiation was inactive: -1.4%. `Cc1ccc(C(=O)NCC2(N3CCCCC3)CCCCC2)o1` was tested, and the potentiation was inactive: 2.6%. With `Fc1ccccc1NC1CCN(Cc2ccccc2)CC1` the potentiation was inactive: -8.73%.
